{"sequences": {"note": "Sequences of proteins named here, by UniProt entry; tags and fusion partners are left off.", "UniProt Q589Y6, whole entry": "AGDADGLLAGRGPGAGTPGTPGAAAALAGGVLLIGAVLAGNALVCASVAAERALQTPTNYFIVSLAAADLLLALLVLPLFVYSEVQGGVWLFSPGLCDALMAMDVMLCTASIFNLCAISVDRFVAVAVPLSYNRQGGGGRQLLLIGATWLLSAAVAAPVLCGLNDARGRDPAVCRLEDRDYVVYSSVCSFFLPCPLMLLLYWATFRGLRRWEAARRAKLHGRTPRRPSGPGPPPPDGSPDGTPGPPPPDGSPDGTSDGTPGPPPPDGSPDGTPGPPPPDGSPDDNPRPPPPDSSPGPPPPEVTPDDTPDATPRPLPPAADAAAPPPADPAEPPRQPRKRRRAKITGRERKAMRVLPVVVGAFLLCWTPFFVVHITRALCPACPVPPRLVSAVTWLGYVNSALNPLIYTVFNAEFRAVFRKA"}, "source": "BindingDB's records for doi:10.1038/350610a0", "about": "(University of Toronto, 1991)", "molecular_target": "Dopamine receptor D4 (Canis lupus familiaris, UniProt Q589Y6)", "note": "pKi: −log10 of the molar value. Several values for one entry are separate records, joined by “and”; a condition that tells them apart may be missing. Equal values may be shown once.", "data": [{"smiles": "CN1CCN([C@@H]2Cc3ccccc3Sc3ccc(Cl)cc32)CC1", "values": [{"measurement": "pKi", "result": "7.87 and 8.80"}]}]}
